Measurements as given in EP0637237B1, “CALCIUM RECEPTOR-ACTIVE MOLECULES” (BRIGHAM AND WOMEN'S HOSPITAL, INC., priority 1993, dated 1994).

Tested on: Bovine parathyroid cells
Conditions: at concentrations that caused mobilization of intracellular Ca2+, Figs. 8, 13 (neomycin B data of Fig. 13 from human cells)

## NCCCNCCCCNCCCN [spermine]
  inhibition of PTH secretion: inhibited PTH secretion to the same extent as extracellular Ca^2+
